Experiments:
[1] = biological target: Orexin/Hypocretin receptor type 1 (Rattus norvegicus) (UniProt P56718); conditions: Wistar, dose 1.0 mg/kg, route po, time 1.0 hrs
[2] = biological target: Orexin/Hypocretin receptor type 1 (Rattus norvegicus) (UniProt P56718); conditions: Wistar, dose 30.0 mg/kg, route po, time 1.0 hrs
[3] = biological target: Orexin/Hypocretin receptor type 1 (Rattus norvegicus) (UniProt P56718); conditions: Wistar, dose 100.0 mg/kg, route po, time 1.0 hrs
Rattus norvegicus = species on record: Rattus norvegicus; conditions: Sprague-Dawley, dose 30-100 mg/kg, route po, time 1.0 hrs
Orexin receptor type 2 = Orexin receptor type 2 (Homo sapiens, UniProt O43614)

Sequences of proteins named here, by UniProt entry; tags and fusion partners are left off.
UniProt P56718, whole entry: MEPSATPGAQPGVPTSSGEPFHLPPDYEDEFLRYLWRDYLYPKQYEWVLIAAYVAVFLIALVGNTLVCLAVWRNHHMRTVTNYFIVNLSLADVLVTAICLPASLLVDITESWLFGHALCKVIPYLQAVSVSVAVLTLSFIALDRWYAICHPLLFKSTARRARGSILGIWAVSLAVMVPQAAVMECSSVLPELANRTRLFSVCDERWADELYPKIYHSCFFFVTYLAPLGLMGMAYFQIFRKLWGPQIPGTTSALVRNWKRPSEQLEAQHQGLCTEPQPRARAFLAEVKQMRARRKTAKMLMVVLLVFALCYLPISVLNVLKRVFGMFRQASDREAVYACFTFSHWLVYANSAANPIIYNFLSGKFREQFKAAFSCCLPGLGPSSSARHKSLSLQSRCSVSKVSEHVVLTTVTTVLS
UniProt O43614, whole entry: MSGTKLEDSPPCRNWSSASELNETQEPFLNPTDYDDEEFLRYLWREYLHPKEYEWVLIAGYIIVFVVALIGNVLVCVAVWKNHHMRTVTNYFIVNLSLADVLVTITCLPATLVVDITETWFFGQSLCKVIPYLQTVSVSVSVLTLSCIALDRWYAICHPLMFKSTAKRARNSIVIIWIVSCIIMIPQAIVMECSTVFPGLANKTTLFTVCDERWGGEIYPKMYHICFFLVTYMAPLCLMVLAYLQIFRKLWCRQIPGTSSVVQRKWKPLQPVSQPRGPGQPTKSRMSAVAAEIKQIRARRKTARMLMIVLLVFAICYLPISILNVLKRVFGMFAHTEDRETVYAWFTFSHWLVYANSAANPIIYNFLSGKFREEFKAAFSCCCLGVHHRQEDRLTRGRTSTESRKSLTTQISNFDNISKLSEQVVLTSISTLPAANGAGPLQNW

Row | SMILES | Occ [1] | Occ [2] | Occ [3] | inhibition (Rattus norvegicus) | IC50 (Orexin receptor type 2)
1 | Cc1cccc(C(=O)N2CCOC[C@H]2Cc2cccc(-n3nccn3)c2)c1-n1nccn1 | > 97% | – | – | – | –
2 | Cc1ccc(C(=O)N2CCOC[C@H]2Cc2cccc(-n3nccn3)c2)c(-n2nccn2)c1 [NIVASOREXANT] | > 99% | > 99% | > 99% | Dose-Dependent Effect | –
3 | Cc1ccc(C(=O)N2[C@H](Cc3cccc(-n4nccn4)c3)COC[C@H]2C)c(-n2nccn2)c1 | – | – | – | – | 386 nM
4 | Cc1ccc(C(=O)N2CCOC[C@H]2Cc2cc(-n3nccn3)ccc2F)c(-n2nccn2)c1 | > 99% | 93% | > 99% | – | –

Reference: ChEMBL document CHEMBL5537208, “Discovery of Nivasorexant (ACT-539313): The First Selective Orexin-1 Receptor Antagonist (SO1RA) Investigated in Clinical Trials” (J Med Chem, 2024)
